Test results as given in US9574014B2, “Chimeric antigen receptor compositions” (City of Hope, priority 2015, dated 2017).

Columns and labels:
Assay type in all cases: cell-based
Meditope-AF647 = experiment: Flow cytometry of meHER2-CARs in primary human T cells, Meditope-AF647 staining; details: lentivirally transduced primary human T cells; CAR meditope pocket
Description: FIG. 11A-11C. Expression of meditope-enabled Fab-CARs in primary human T cells. FIG. 11A, Schematic of meditope (me)-enabled trastuzumab Fab-CAR cassette (meHER2), with the T2A ribosomal skip sequence separating the antibody light chain (meLc) and the heavy chain fused to the IgG4-CH3-Fc linker, CD28 trasmembrane domain (Tm) and the CD28 and CD3ζ cytoplasmic signaling domains (Hc28ζ). Expression is driven by the EF1α promoter and was tested in two orientations: Lc-Hc28ζ and Hc28ζ-Lc. FIG. 11B, Primary human T cells were lentivirally transduced and expression of the meHER2-CARs was evaluated by flow cytometry. Protein L staining, which binds the Fab light chain, confirms cell surface expression of both CAR orientations, with higher expression levels (MFI) observed for the Hc28ζ-Lc (MFI 5357) vs Lc-Hc28ζ (MFI 2592) orientation. Meditope-AF647 staining confirms the functional formation of the CAR meditope pocket, with greater binding to the Hc28ζ-Lc (MFI 6042) vs Lc-Hc28ζ (MFI 2121) orientation.

[1] = test system: Alexa Fluor 488-meditope Fc (MFC); experiment: Flow cytometry of CAR-transfected CHO-S cells, meditope Fc labeling; details: two days
From the text: (§1) FIG. 10. CHO-S cells were transfected with either memAb trastuzumab Fab CAR (meCAR) or trastuzumab scFv-CAR (HER2CAR) plasmid for two days. The meCAR and HER2CAR construct differ only in the HER2-targeting component, each linked to CH3, CD28 transmembrane domain and CD3 zeta. A truncated CD19 can also be expressed from the plasmids and serves as a transfection control. The transfected CHO-S cells were filtered with 40 μm filter to remove debris and were washed once with 0.3% BSA-PBS. The cells were then labeled on ice for 1 h with: PE-anti-CD19 or isotype control, biotinylated anti-Fcγ followed by streptavidin-PE, or double-labeled with Pacific Blue-soluble HER2 and Alexa Fluor 488-meditope Fc (MFC). At the end of the incubations, the cells were washed once and resuspended in 800 μl of wash buffer. Sytox blue was added to the unlabeled cells for viability and membrane permeability assessments. Cells were gated with forward and side scatter only. Sytox Blue and Pacific Blue have considerable overlap in their spectra, thus the Sytox Blue signal of the unlabeled samples have “leaked” into the Pacific Blue channel. It has been noted that when CHO-S cells express membrane-bound proteins, their membrane becomes more permeable to Sytox Blue dye as shown with the group of cells in yellow oval.

[2] = target: T1, Pacific Blue-soluble HER2 (Homo sapiens, UniProt P04626); experiment: Flow cytometry of CAR-transfected CHO-S cells, soluble HER2 labeling; details: two days
T1 construct: host or cells: reagent; the stained cells are transiently transfected CHO-S
From the text: as §1

Substance	Meditope-AF647 staining, binding (MFI) (Meditope-AF647)	MFC binding [1]	soluble HER2 (sHER2) labeling [2]
Lc-Hc28ζ: meditope-enabled trastuzumab Fab-CAR, light chain followed by T2A and heavy chain-CD28-CD3ζ	2121	–	–
meCAR: memAb trastuzumab Fab CAR linked to CH3, CD28 transmembrane domain and CD3 zeta, in CHO-S cells	–	positive for MFC binding	sHER2 positive
